The values below come from patent publication US7572603B2, “Alpha-2 adrenergic receptor polymorphisms” (University of Cincinnati, priority 2000, dated 2009).

Amino acid sequences for entries named in this document (tags omitted).
UniProt P18825, whole entry L239R/S401I/R446P: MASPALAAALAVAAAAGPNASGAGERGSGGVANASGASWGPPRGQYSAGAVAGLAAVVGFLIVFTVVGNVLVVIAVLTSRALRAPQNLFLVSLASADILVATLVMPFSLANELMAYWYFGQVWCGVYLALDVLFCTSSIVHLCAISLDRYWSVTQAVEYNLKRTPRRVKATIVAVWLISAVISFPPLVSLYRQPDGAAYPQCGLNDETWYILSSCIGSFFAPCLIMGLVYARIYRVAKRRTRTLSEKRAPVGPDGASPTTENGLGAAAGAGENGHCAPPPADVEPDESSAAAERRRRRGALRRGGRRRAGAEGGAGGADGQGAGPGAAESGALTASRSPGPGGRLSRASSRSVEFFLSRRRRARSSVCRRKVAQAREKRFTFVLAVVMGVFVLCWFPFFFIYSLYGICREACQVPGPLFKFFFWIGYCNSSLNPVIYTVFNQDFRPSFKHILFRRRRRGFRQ

This assay addresses wild-type alpha-2CAR (Homo sapiens, UniProt P18825, L239R/R446P/S401I). Briefly: Inhibition of forskolin-stimulated adenylyl cyclase, CHO cell membranes. It counts as biochemical. Also noted: expressed in transfected cells; membranes or intact cells. To be noted: higher expressing line, 1375 fmol/mg.

On to `CNC[C@H](O)c1ccc(O)c(O)c1` [epinephrine], for which the “maximal inhibition of forskolin-stimulated adenylyl cyclase” value turned out to be 60±3%.
